The values below come from patent publication US5616570A, “Use of non-absorbable synthetic sulfated polysaccharides to decrease cholesterol absorbtion” (priority 1994, dated 1997).

This assay has as its target T1, Human pancreatic cholesterol esterase (Homo sapiens, UniProt P19835).
T1 construct: Human pancreatic cholesterol esterase was purified as described by Bosner et al; from tissue; host or cells: human pancreas (purified to homogeneity)
T1 sequence (P19835 21-753): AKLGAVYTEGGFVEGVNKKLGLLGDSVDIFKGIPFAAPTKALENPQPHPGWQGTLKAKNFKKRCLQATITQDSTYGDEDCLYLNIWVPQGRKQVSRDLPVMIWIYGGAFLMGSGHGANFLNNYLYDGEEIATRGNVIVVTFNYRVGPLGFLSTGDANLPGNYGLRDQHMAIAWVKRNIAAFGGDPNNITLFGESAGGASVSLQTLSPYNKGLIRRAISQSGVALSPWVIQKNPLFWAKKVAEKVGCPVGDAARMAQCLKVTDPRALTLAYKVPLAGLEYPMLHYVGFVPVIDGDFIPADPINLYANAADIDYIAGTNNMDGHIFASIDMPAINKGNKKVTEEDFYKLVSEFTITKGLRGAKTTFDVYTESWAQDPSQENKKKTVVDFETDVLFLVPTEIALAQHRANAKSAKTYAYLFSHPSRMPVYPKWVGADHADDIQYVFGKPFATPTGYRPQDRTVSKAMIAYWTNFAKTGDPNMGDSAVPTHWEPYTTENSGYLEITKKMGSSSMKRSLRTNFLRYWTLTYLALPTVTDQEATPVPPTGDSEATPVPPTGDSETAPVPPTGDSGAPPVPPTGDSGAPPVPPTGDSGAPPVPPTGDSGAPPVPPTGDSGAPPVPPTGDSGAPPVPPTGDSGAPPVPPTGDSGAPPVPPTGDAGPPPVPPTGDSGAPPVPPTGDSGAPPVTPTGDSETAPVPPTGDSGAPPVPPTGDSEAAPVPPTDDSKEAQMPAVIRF
The assay can be described thus: Inhibition of human pancreatic cholesterol esterase, cholesteryl 14C-oleate hydrolysis. The format is biochemical. Particulars: molar value based on assumed polymer molecular weight.

The term IC50 denotes the midpoint of a concentration-inhibition curve. Read a low IC50 as greater potency in that assay. Regarding “agar [native (unsulfated) agar, reference compound]”, the IC50 came out at 30 nM. In other words, the double-digit nanomolar range.
